This note sets out measurements from paper PMC3184503, “Isolation, Purification, and Characterization of Fungal Laccase from Pleurotus sp” (2011).

The experiment concerns laccase. The experiment in a line: inhibition of purified laccase activity, Ki.

SMILES strings stand for the structures.

Usually Ki stands for a dissociation constant, usually derived from enzyme kinetics or from competition with a known ligand. The low end stands for higher affinity, the high end for lower affinity. Compound `[N-]=[N+]=N` came in with an inhibition constant (Ki) of 30 µM.
